Measured values reported in patent US11192920B2, “Peptides for binding to CD44v6 and use thereof” (KYUNGPOOK NATIONAL UNIVERSITY INDUSTRY-ACADEMIC COOPERATION …, priority 2017, dated 2021).

Tests used:
4T1 orthotopic mice = settings: for ex vivo fluorescence intensity in target tumors: 6 h post-injection, compared to control peptide; for in vivo tumor localization: FPR 675-labeled peptide i.v., 4T1 orthotopic mice, 1-6 h
MDA-MB-231 xenograft = settings: for ex vivo fluorescence intensity in target tumors: 6 h post-injection, compared to control peptide; for in vivo tumor localization: FPR 675-labeled peptide i.v., MDA-MB-231 xenograft mice, 1-6 h
MDA-MB-231 and 4T1 cells = settings: different concentration, 24 hours
Description: Biotinylated peptide+avidin bead+cell lysate (complex 2) were eluted for western blot analysis using CD44v6 antibody to pull down the specific protein.

Row | Sequence | ex vivo fluorescence intensity in target tumors (4T1 orthotopic mice) | in vivo tumor localization (4T1 orthotopic mice) | ex vivo fluorescence intensity in target tumors (MDA-MB-231 xenograft) | in vivo tumor localization (MDA-MB-231 xenograft) | cell viability (cytotoxicity) (MDA-MB-231 and 4T1 cells)
1 | CNEWQLKSC [v6Pep-2] | high accumulation | localized to tumor tissue | high accumulation | readily localized to tumor tissue | did not significantly affect cell viability
2 | CNLNTIDTC [v6Pep-1] | high accumulation | localized to tumor tissue | high accumulation | readily localized to tumor tissue | did not significantly affect cell viability
